# Data as given in patent US20220259284A1, “CA2 COMPOSITIONS AND METHODS FOR TUNABLE REGULATION” (Obsidian Therapeutics, Inc., priority 2019, published 2022).
# Tested on: CD40L constructs regulated by Carbonic anhydrase DDs in T cells
# Test: Acetazolamide dose response of CD40L expression in transduced T cells, FACS (MFI, % CD40L positive)
# Assay type: cell-based, human
# Details: CD4+ T cells, Acetazolamide 0.05 μM, 24 hours
# Description: CD40L constructs regulated by Carbonic anhydrase DDs were generated and cloned into lentiviral vectors. Purified T cells were thawed and cultured with aCD3 aCD28 Dynabeads (in the ratio of 3 beads to 1 T cell).
# The constructs were transduced in T cells the next day. […] 24 hours after the addition of ligand T cells were stained for CD40L expression and analyzed using FACS.
compound,measurement,value
CC(=O)Nc1nnc(S(N)(=O)=O)s1 [Acetazolamide],CD40L MFI,123
